Experimental data reported in patent US20040106545A1, “Compounds and methods for modulating cell adhesion” (priority 1996, published 2004).

Legend:
[1] = system: PC-3; test: Cytotoxicity, MTT assay, PC-3; assay type: cell-based, human
Experimental: (§1) N—Ac-CHAVC-NH2 (SEQ ID NO:10) and the control peptide N—Ac-CHGVC-NH2 (SEQ ID NO:11) were evaluated for possible cytotoxic effects on human microvascular endothelial (HMVEC; Clonetics), human umbilical vein endothelial (HUVEC; ATCC #CRL-1730), IAFp2 (human fibroblast cell line; Institute Armand-Frapier, Montreal, Quebec), WI-38 (human fibroblast cell line; ATCC #CCL-75), MDA-MB231 (human breast cancer cell line; ATCC #HTB-26), and PC-3 (human prostate cancer cell line; ATCC #CRL-1435) cells utilizing the MTT assay (Plumb et al., Cancer Res. 49:4435-4440, 1989). Neither of the peptides was cytotoxic at concentrations up to and including 100 μM. Similarly, neither of the peptides was capable of inhibiting the proliferation of the above cell lines at concentrations up to 100 μM, as judged by ^3H-thymidine incorporation assays.

[2] = system: mice; test: Chronic toxicity study in mice; assay type: in vivo, mouse
Experimental: Varying amounts of H-CHAVC-NH2 (SEQ ID NO:10; 2 mg/kg, 20 mg/kg and 125 mg/kg) were injected into mice intraperitoneally every day for three days.

[3] = Stability of cyclic peptide in mouse whole blood; assay type: in vitro ADME; conditions: 37° C.
Experimental: 50 μl of a stock solution containing 12.5 μg/ml H-CHAVC-NH2 (SEQ ID NO:10) was added to mouse whole blood and incubated at 37° C. Aliquots were removed at intervals up to 240 minutes, precipitated with acetonitrile, centrifuged and analyzed by HPLC.

[4] = system: MDA-MB231; test: Cytotoxicity, MTT assay, MDA-MB231; assay type: cell-based, human
Experimental: as §1

[5] = target: T1, N-cadherin (Gallus gallus, UniProt P10288); test: Neurite outgrowth inhibition, rat neurons (Example 21); assay type: cell-based; conditions: read-out: % Inhibition of neurite outgrowth; 250 μg/mL
T1 construct: expressed in transfected cells; host or cells: 3T3 fibroblasts (monolayer)
T1 sequence (P10288 165-912): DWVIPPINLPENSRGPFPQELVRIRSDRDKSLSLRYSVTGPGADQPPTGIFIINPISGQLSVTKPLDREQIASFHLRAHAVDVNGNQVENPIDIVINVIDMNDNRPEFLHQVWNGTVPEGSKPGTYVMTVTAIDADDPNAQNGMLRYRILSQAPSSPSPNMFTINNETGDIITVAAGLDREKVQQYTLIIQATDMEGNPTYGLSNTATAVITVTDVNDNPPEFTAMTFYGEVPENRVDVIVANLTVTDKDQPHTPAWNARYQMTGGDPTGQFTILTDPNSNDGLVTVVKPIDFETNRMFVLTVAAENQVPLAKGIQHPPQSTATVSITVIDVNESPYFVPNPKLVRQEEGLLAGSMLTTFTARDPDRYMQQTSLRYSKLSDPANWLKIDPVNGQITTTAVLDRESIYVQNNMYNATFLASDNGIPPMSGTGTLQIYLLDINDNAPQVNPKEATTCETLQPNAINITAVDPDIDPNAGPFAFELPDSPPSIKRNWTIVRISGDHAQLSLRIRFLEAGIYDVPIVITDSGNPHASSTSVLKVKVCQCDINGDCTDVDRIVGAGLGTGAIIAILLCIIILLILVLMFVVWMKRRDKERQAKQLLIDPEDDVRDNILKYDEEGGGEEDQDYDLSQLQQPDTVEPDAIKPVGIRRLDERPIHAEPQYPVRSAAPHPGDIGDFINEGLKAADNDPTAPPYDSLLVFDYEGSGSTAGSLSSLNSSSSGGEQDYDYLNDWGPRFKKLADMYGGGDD

[6] = system: HMVEC; assay type: cell-based, human; conditions: 3 h
Experimental: as §1

[7] = system: PC-3; assay type: cell-based, human; conditions: 3 h
Experimental: as §1

[8] = system: IAFp2; assay type: cell-based, human; conditions: 3 h
Experimental: as §1

[9] = system: HUVEC; assay type: cell-based, human; conditions: 3 h
Experimental: as §1

[10] = system: MDA-MB231; assay type: cell-based, human; conditions: 3 h
Experimental: as §1

[11] = system: WI-38; assay type: cell-based, human; conditions: 3 h
Experimental: as §1

For `CC(C)[C@@H]1NC(=O)[C@H](C)NC(=O)[C@H](Cc2c[nH]cn2)NC(=O)[C@@H](N)CSSC[C@@H](C(N)=O)NC1=O` [H—CHAVC—NH2], the IC50 [1] was greater than 100 µM, the Body weight ([2]; mice, 2, 20 and 125 mg/kg intraperitoneally every day for three days, recovery days 4-8) was “no significant differences occurred” and the clinical symptoms ([2]; mice, 2, 20 and 125 mg/kg intraperitoneally every day for three days, treatment or recovery days) was “no clinical symptoms were observed”. The autopsy findings ([2]; mice, 2, 20 and 125 mg/kg ip for three days, after four day recovery) was “no abnormalities were observed”, the “% Remaining” value ([3]; 0 min) was 100.00% and the “stability in blood (in words)” value ([3]; up to 240 minutes) was “generally good stability in blood”. For the same molecule, the IC50 [4] was greater than 100 µM, the inhibition at 250 µg/mL [5] was 0% and the IC50 [6] was greater than 100 µM. For the same molecule, the IC50 [7] was greater than 100 µM, the IC50 [8] was greater than 100 µM and the IC50 [9] was greater than 100 µM. For the same molecule, the IC50 [10] was greater than 100 µM and the IC50 [11] was greater than 100 µM.
With `CC(C)[C@@H]1NC(=O)CNC(=O)[C@H](Cc2c[nH]cn2)NC(=O)[C@@H](N)CSSC[C@@H](C(N)=O)NC1=O` [H—CHGVC—NH2] the IC50 [1] was greater than 100 µM, the IC50 [4] was greater than 100 µM and the inhibition at 250 µg/mL [5] was 0%. It also gave an IC50 [6] greater than 100 µM, an IC50 [7] greater than 100 µM and an IC50 [8] greater than 100 µM. It also gave an IC50 [9] greater than 100 µM, an IC50 [10] greater than 100 µM and an IC50 [11] greater than 100 µM.

Like-named read-outs stand apart in the source and are kept apart here.
